Literature values in US12637471B2, “Heterocyclic compounds, compositions, methods of preparation and uses thereof” (Organon R&D Finland Ltd, priority 2021, dated 2026).

The chains behind the UniProt entries cited, without tags or fusion partners.
UniProt P42330, whole entry: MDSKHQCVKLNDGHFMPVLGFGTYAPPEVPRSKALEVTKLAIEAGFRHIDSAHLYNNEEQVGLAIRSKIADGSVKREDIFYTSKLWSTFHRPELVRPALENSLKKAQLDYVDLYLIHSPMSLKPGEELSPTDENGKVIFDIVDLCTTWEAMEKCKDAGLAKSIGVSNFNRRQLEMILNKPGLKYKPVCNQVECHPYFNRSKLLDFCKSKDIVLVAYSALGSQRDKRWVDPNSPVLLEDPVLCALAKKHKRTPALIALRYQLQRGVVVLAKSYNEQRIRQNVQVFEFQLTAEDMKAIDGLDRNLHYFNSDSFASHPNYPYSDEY

Target: AKR1C3 (Homo sapiens, UniProt P42330)
Settings: read-out: AKR1C3 IC50-value; literature value; cited from earlier work

## O=C(N1CCOCC1)N1CCN(c2ccc(Cl)cc2Cl)CC1
  IC50: 110 nM
